In ChEMBL document CHEMBL3994613, “Diaryltriazenes as antibacterial agents against methicillin resistant Staphylococcus aureus (MRSA) and Mycobacterium smegmatis” (Eur J Med Chem, 2017):

Test system: Staphylococcus aureus
Details: USA300

## GENTAMICIN
  MIC: 0.5 to 8 µg/mL
